Results as given in publication PMC12198324.

Protein sequences, listed by entry. Tags and fused reporters are not part of them.
UniProt P33535, whole entry: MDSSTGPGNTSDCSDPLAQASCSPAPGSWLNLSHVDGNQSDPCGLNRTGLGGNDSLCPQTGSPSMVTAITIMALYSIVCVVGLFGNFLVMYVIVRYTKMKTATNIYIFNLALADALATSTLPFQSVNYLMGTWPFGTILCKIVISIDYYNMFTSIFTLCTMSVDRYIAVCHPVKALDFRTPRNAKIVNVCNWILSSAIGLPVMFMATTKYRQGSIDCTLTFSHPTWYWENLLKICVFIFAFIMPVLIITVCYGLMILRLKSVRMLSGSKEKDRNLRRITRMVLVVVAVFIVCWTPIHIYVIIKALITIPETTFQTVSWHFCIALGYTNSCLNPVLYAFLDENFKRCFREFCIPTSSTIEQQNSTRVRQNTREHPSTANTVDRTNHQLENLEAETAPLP

Target: µOR (Rattus norvegicus, UniProt P33535)
Test: Antagonist reversal of opioid-induced cAMP inhibition in HEK293-µOR cells ([^3H]-adenine labelling)
Conditions: antagonist 100 µM

SMILES: C=C1CC[C@@]2(O)[C@H]3Cc4ccc(O)c5c4[C@@]2(CCN3CC2CC2)[C@H]1O5
- Remaining opioid effect at 100 µM (agonist CAR (0.01 µM)): 6.4 ± 9%
- Remaining opioid effect at 100 µM (agonist FEN (0.15 µM)): 0.2 ± 4%
- Remaining opioid effect at 100 µM (agonist REMI (0.5 µM)): 6.3 ± 5%
